{"source": "paper PMC2096555", "about": "(Purinergic Signalling, 2005)", "target": "T1, rat NTPDase3 (Rattus norvegicus, UniProt A6I415)", "T1 sequence (A6I415 1-529)": "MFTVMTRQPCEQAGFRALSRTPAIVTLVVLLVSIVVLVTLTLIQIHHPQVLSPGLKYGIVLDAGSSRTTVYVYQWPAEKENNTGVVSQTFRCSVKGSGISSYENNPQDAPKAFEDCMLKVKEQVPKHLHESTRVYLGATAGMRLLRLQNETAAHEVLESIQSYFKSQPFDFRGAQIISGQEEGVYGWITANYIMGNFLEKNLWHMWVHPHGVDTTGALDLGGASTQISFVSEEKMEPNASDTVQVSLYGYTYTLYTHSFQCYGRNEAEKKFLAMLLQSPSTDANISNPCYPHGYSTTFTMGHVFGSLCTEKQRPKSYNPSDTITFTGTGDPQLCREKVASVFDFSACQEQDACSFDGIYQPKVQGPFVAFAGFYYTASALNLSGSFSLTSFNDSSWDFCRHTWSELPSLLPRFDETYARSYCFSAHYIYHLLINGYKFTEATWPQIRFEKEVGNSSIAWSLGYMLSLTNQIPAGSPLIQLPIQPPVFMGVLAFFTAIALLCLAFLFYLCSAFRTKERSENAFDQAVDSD", "assay_type": "biochemical", "settings": "ratio of Ki values"}
{"smiles": "Nc1c(S(=O)(=O)O)cc(Nc2ccc(Nc3nc(Cl)nc(Nc4cccc(S(=O)(=O)O)c4)n3)c(S(=O)(=O)O)c2)c2c1C(=O)c1ccccc1C2=O", "note": "[RB2, reactive blue 2]", "values": [{"measurement": "factor by which Ki is lower for NTPDase3 than for NTPDase1 and NTPDase2", "result": 20, "unit": "fold"}]}
